Assay results from paper PMC2831815.

System: Nc1ncnc2c1ncn2[C@@H]1O[C@H](COP(=O)(O)OP(=O)(O)OP(=O)(O)O)[C@@H](O)[C@H]1O
Assay: purified protein
Details: 10 mM MgCl2, pH 7.6, 37 °C, ATP 0.025-3.5 mM

TraJ (Aeromonas veronii)
Km: 580 ± 100 µM
